{"sequences": {"note": "Chains of the proteins cited; added tags and fusions are not shown.", "UniProt R9ULB8, entry or part of it": "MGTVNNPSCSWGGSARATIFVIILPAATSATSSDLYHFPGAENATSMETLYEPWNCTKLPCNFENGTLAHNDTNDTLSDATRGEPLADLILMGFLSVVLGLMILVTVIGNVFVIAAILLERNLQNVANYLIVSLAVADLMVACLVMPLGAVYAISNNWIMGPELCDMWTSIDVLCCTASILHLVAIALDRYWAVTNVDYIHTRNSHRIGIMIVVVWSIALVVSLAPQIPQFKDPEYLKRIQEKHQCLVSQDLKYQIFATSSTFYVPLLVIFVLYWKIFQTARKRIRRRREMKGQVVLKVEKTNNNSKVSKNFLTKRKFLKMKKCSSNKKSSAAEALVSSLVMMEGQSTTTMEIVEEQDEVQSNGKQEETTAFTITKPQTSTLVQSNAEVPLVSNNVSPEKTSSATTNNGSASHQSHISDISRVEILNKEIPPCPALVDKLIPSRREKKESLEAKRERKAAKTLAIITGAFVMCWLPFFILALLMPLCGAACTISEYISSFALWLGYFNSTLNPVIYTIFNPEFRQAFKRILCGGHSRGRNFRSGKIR"}, "source": "paper PMC3669024", "about": "“Pharmacological Characterization of a 5-HT1-Type Serotonin Receptor in the Red Flour Beetle, Tribolium castaneum” (PLoS ONE, 2013)", "molecular_target": "Trica5-HT1 (Tribolium castaneum, UniProt R9ULB8)", "assay": "Aequorin-luminescence assay, antagonist inhibition of 5-HT mediated activation of Trica5-HT1 in CHO-WTA11 cells", "format": "cell-based", "procedure": "General binding studies were performed in Chinese hamster ovary (CHO) WTA11 cells stably coexpressing apoaequorin and the promiscuous Gα16. This allowed us to measure the pharmacology independent of the downstream signaling. CHO-PAM28 cells stably expressing apoaequorin, but not the promiscuous Gα16, and human embryonic kidney cells (HEK) 293 cells were used to measure downstream signaling via Ca^2+ and cAMP, respectively. CHO cell lines were provided by Prof. Marc Parmentier (University of Brussels, Belgium) and Dr. Michel Detheux (Euroscreen S.A., Belgium). HEK293 cells were a gift from Prof. Arnd Baumann (Research Centre Jülich, Germany.\nCells were cultured in vitro as monolayers at 37°C, 5% CO2 and high relative humidity, and subcultivated twice a week. […] HEK293 cells were cotransfected with receptor construct (4 µg) and CRE-luciferase construct (2 µg), consisting of the open reading frame of the reporter gene, luciferase, downstream of a multimerized cAMP-response-element (CRE6x), [39]. […]\nThe transfected CHO cells were detached with phosphate buffered saline (PBS) containing 0.2% EDTA and collected in DMEM/F-12 (without phenol red, with L-glutamine and 10 mM HEPES) (Gibco). The amount of viable cells was determined using the NucleoCounter NC-100+TM (Chemometic). […] Receptor activity was measured as the light emission after adding 50 µl of the cell suspension. […]", "note": "Counter-ions that a name gives are not always drawn.", "data": [{"smiles": "CN1CCN2c3ccccc3Cc3ccccc3C2C1", "note": "(centres unmarked) [mianserin, mianserin hydrochloride]", "values": [{"measurement": "agonistic effects at high concentration", "setting": "100 µM, with 5-HT 100 nM", "value": "some agonistic effects"}, {"measurement": "inhibition of 5-HT induced responses (words)", "setting": "5-HT 100 nM, antagonist 10 nM to 1 mM", "value": "no detectable inhibition"}]}]}
